# Reference: patent US12533408B2, “Treatment regimen for the treatment of autoimmune disorders” (Merck Patent GmbH, priority 2020, dated 2026)
# How the values were obtained:
# B-cell subsets = assay: Longitudinal blood analysis of B-cell subsets (MAGNIFY-MS deep immune phenotyping)
# IgG and IgM = assay: Serum immunoglobulin levels (IgG, IgM) under cladribine tablets
# [1] = Patient 70056800227010005, Month 2
# [2] = Patient 70056800227010005, Month 2 to end of month 3
# [3] = Patient 70056800227010005, end of month 3
# [4] = Patient Australia VZV-70056800221260001, month 0, 8.6 wk after Zostavax, 1.3 wk before first Mavenclad dose
# [5] = Patient Australia VZV-70056800221260001, month 3, 24.6 wk after Zostavax, 14.7 wk after first Mavenclad dose
# [6] = Patient Canada VZV-70056800222530003, month 0, 9.7 wk after Shingrix, before first Mavenclad dose
# [7] = Patient Canada VZV-70056800222530003, month 3, 23.0 wk after Shingrix, 13.3 wk after first Mavenclad dose
# [8] = Patient Finland VZV-70056800221620004, month 0, 6.4 wk after Zostavax, before first Mavenclad dose
# [9] = Patient Finland VZV-70056800221620004, month 12, 61.3 wk after Zostavax, 54.9 wk after first Mavenclad dose
# [10] = Patient Finland VZV-70056800221620004, month 15, 74.3 wk after Zostavax, 13.0 wk after first dose of previous Mavenclad course
# [11] = Patient Finland VZV-70056800221620004, month 3, 18.3 wk after Zostavax, 11.9 wk after first Mavenclad dose
# [12] = Patient Finland VZV-70056800221620004, month 6, 32.3 wk after Zostavax, 25.9 wk after first Mavenclad dose
smiles,measurement,setting,value
"Nc1nc(Cl)nc2c1ncn2[C@H]1C[C@H](O)[C@@H](CO)O1 [cladribine tablets, Cladribine]","Bregs, change vs baseline",B-cell subsets; Month 1,−37%
same,"Memory B-cells, change vs baseline",B-cell subsets; Month 1,−77%
same,"CD 19+ B-cells, change vs baseline","B-cell subsets; Month 1, listed as Cladribine",−76%
same,"Naïve B-cells, change vs baseline","B-cell subsets; Month 1, listed as Cladribine",−79%
same,"Transitional B-cells, change vs baseline","B-cell subsets; Month 1, listed as Cladribine",−61%
same,"CD 19+ B-cells, change vs baseline","B-cell subsets; Month 1, listed as cladribine",−76%
same,"Naïve B-cells, change vs baseline","B-cell subsets; Month 1, listed as cladribine",−79%
same,"Transitional B-cells, change vs baseline","B-cell subsets; Month 1, listed as cladribine",−61%
same,"Bregs, change vs baseline",B-cell subsets; Month 2,−10%
same,"CD 19+ B-cells, change vs baseline","B-cell subsets; Month 2, listed as Cladribine",−90%
same,"Memory B-cells, change vs baseline","B-cell subsets; Month 2, listed as Cladribine",−93%
same,"Naïve B-cells, change vs baseline","B-cell subsets; Month 2, listed as Cladribine",−92%
same,"Transitional B-cells, change vs baseline","B-cell subsets; Month 2, listed as Cladribine",−61%
same,"CD 19+ B-cells, change vs baseline","B-cell subsets; Month 2, listed as cladribine",−90%
same,"Memory B-cells, change vs baseline","B-cell subsets; Month 2, listed as cladribine",−93%
same,"Naïve B-cells, change vs baseline","B-cell subsets; Month 2, listed as cladribine",−92%
same,"Transitional B-cells, change vs baseline","B-cell subsets; Month 2, listed as cladribine",−61%
same,"Memory B-cells, change vs baseline",B-cell subsets; Month 3,−93%
same,"Bregs, change vs baseline","B-cell subsets; Month 3, listed as Cladribine",+216%
same,"CD 19+ B-cells, change vs baseline","B-cell subsets; Month 3, listed as Cladribine",−76%
same,"Naïve B-cells, change vs baseline","B-cell subsets; Month 3, listed as Cladribine",−69%
same,"Transitional B-cells, change vs baseline","B-cell subsets; Month 3, listed as Cladribine",+35%
same,"Bregs, change vs baseline","B-cell subsets; Month 3, listed as cladribine",+216%
same,"CD 19+ B-cells, change vs baseline","B-cell subsets; Month 3, listed as cladribine",−76%
same,"Naïve B-cells, change vs baseline","B-cell subsets; Month 3, listed as cladribine",−69%
same,"Transitional B-cells, change vs baseline","B-cell subsets; Month 3, listed as cladribine",+35%
same,"Memory B-cells, change vs baseline",B-cell subsets; Month 6,−92%
same,"Bregs, change vs baseline","B-cell subsets; Month 6, listed as Cladribine",+202%
same,"CD 19+ B-cells, change vs baseline","B-cell subsets; Month 6, listed as Cladribine",−57%
same,"Naïve B-cells, change vs baseline","B-cell subsets; Month 6, listed as Cladribine",−35%
same,"Transitional B-cells, change vs baseline","B-cell subsets; Month 6, listed as Cladribine",+19%
same,"Bregs, change vs baseline","B-cell subsets; Month 6, listed as cladribine",+202%
same,"CD 19+ B-cells, change vs baseline","B-cell subsets; Month 6, listed as cladribine",−57%
same,"Naïve B-cells, change vs baseline","B-cell subsets; Month 6, listed as cladribine",−35%
same,"Transitional B-cells, change vs baseline","B-cell subsets; Month 6, listed as cladribine",+19%
same,"Bregs, change vs baseline","B-cell subsets; Month 12, listed as Cladribine",+75%
same,"CD 19+ B-cells, change vs baseline","B-cell subsets; Month 12, listed as Cladribine",−11%
same,"Memory B-cells, change vs baseline","B-cell subsets; Month 12, listed as Cladribine",−89%
same,"Naïve B-cells, change vs baseline","B-cell subsets; Month 12, listed as Cladribine",+32%
same,"Transitional B-cells, change vs baseline","B-cell subsets; Month 12, listed as Cladribine",+23%
same,"Bregs, change vs baseline","B-cell subsets; Month 12, listed as cladribine",+75%
same,"CD 19+ B-cells, change vs baseline","B-cell subsets; Month 12, listed as cladribine",−11%
same,"Memory B-cells, change vs baseline","B-cell subsets; Month 12, listed as cladribine",−89%
same,"Transitional B-cells, change vs baseline","B-cell subsets; Month 12, listed as cladribine",+23%
same,memory B cell decrease,"B-cell subsets; Patient 70056800222520001, month 6",80%
same,CD38^bright Plasma cells,B-cell subsets; [1],822 cells/ml
same,Short lived PCs (CD27^bright),B-cell subsets; [1],831 cells/ml
same,CD38^bright Plasma cells increase,B-cell subsets; [2],3.3 fold
same,Short lived PCs (CD27^bright) increase,B-cell subsets; [2],3.3 fold
same,CD20+ B cells reduction,"B-cell subsets; Patient 70056800227010005, Month 3",−72%
same,CD38^bright Plasma cells,B-cell subsets; [3],2716 cells/ml
same,Short lived PCs (CD27^bright),B-cell subsets; [3],2762 cells/ml
same,CD19+ B-cells,B-cell subsets; [4],121 cells/μL
same,CD20+ B-cells,B-cell subsets; [4],119.1 cells/μL
same,CD38+ Plasma cells,B-cell subsets; [4],1.0 cells/μL
same,CD69+ actv. B-cells,B-cell subsets; [4],1.9 cells/μL
same,Memory B-cells,B-cell subsets; [4],29.1 cells/μL
same,Naïve B-cells,B-cell subsets; [4],84.6 cells/μL
same,Regulatory B-cells,B-cell subsets; [4],1.1 cells/μL
same,Short-lived PCs,B-cell subsets; [4],0.9 cells/μL
same,Transitional B-cells,B-cell subsets; [4],4.1 cells/μL
same,CD19+ B-cells,B-cell subsets; [5],18 cells/μL
same,CD20+ B-cells,B-cell subsets; [5],17.5 cells/μL
same,CD38+ Plasma cells,B-cell subsets; [5],0.3 cells/μL
same,CD69+ actv. B-cells,B-cell subsets; [5],0.3 cells/μL
same,Memory B-cells,B-cell subsets; [5],2.3 cells/μL
same,Naïve B-cells,B-cell subsets; [5],13.7 cells/μL
same,Regulatory B-cells,B-cell subsets; [5],4.5 cells/μL
same,Short-lived PCs,B-cell subsets; [5],0.2 cells/μL
same,Transitional B-cells,B-cell subsets; [5],7.0 cells/μL
same,CD69+ actv. B-cells,B-cell subsets; [6],3.0 cells/μL
same,Memory B-cells,B-cell subsets; [6],67.0 cells/μL
same,Naïve B-cells,B-cell subsets; [6],160.7 cells/μL
same,Regulatory B-cells,B-cell subsets; [6],13.4 cells/μL
same,Transitional B-cells,B-cell subsets; [6],18.1 cells/μL
same,CD19+ B-cells,B-cell subsets; [7],39 cells/μL
same,CD20+ B-cells,B-cell subsets; [7],38.6 cells/μL
same,CD38+ Plasma cells,B-cell subsets; [7],0.3 cells/μL
same,CD69+ actv. B-cells,B-cell subsets; [7],0.3 cells/μL
same,Memory B-cells,B-cell subsets; [7],1.9 cells/μL
same,Naïve B-cells,B-cell subsets; [7],35.2 cells/μL
same,Regulatory B-cells,B-cell subsets; [7],12.5 cells/μL
same,Short-lived PCs,B-cell subsets; [7],<LLOQ
same,Transitional B-cells,B-cell subsets; [7],12.2 cells/μL
same,CD19+ B-cells,B-cell subsets; [8],290 cells/μL
same,CD20+ B-cells,B-cell subsets; [8],284.3 cells/μL
same,CD38+ Plasma cells,B-cell subsets; [8],2.8 cells/μL
same,CD69+ actv. B-cells,B-cell subsets; [8],3.3 cells/μL
same,Memory B-cells,B-cell subsets; [8],44.2 cells/μL
same,Naïve B-cells,B-cell subsets; [8],235.4 cells/μL
same,Regulatory B-cells,B-cell subsets; [8],6.2 cells/μL
same,Short-lived PCs,B-cell subsets; [8],2.1 cells/μL
same,Transitional B-cells,B-cell subsets; [8],16.9 cells/μL
same,CD19+ B-cells,B-cell subsets; [9],257 cells/μL
same,CD20+ B-cells,B-cell subsets; [9],255.3 cells/μL
same,CD38+ Plasma cells,B-cell subsets; [9],0.6 cells/μL
same,CD69+ actv. B-cells,B-cell subsets; [9],3.3 cells/μL
same,Memory B-cells,B-cell subsets; [9],6.5 cells/μL
same,Naïve B-cells,B-cell subsets; [9],245.8 cells/μL
same,Regulatory B-cells,B-cell subsets; [9],6.5 cells/μL
same,Short-lived PCs,B-cell subsets; [9],0.4 cells/μL
same,Transitional B-cells,B-cell subsets; [9],17.8 cells/μL
same,CD19+ B-cells,B-cell subsets; [10],88 cells/μL
same,CD20+ B-cells,B-cell subsets; [10],86.2 cells/μL
same,CD38+ Plasma cells,B-cell subsets; [10],0.3 cells/μL
same,CD69+ actv. B-cells,B-cell subsets; [10],1.0 cells/μL
same,Memory B-cells,B-cell subsets; [10],1.3 cells/μL
same,Naïve B-cells,B-cell subsets; [10],83.3 cells/μL
same,Regulatory B-cells,B-cell subsets; [10],30.5 cells/μL
same,Short-lived PCs,B-cell subsets; [10],0.2 cells/μL
same,Transitional B-cells,B-cell subsets; [10],29.9 cells/μL
same,IgM,IgG and IgM; [4],71 mg/dL
same,IgG,IgG and IgM; [8],931 mg/dL
same,IgM,IgG and IgM; [8],95 mg/dL
same,IgG,IgG and IgM; [11],926 mg/dL
same,IgM,IgG and IgM; [11],75 mg/dL
same,IgG,IgG and IgM; [12],808 mg/dL
same,IgM,IgG and IgM; [12],72 mg/dL
same,IgG,IgG and IgM; [9],847 mg/dL
same,IgM,IgG and IgM; [9],73 mg/dL
same,IgG,IgG and IgM; [10],745 mg/dL
same,IgM,IgG and IgM; [10],60 mg/dL
